Tested on: PNH RBCs
Assay: modified Ham's assay comparing CA28-2GS-BF with Soliris
Type: cell-based, human
Conditions: activated complement
Protocol: Flow cytometry was performed after antibody staining using antibodies against CD59 and C3d. In this figure, quadrant 1 (Q1) and quadrant 3 (Q3) represent Type III cells. Quadrant 2 (Q2) and quadrant 4 (Q4) represent Types I and II cells. Q1 and Q2 represent cells with a significant and abnormally high amount of C3 activation product (e.g., C3d) deposition. Q3 and Q4 represent cells without significant C3d deposition or somewhat elevated level (right portion of Q4) but less so than Q2 cells.

B1: Eculizumab: humanized anti-C5 monoclonal antibody approved for treatment of PNH and aHUS (antibody, chains of the INN, looked up)
heavy: QVQLVQSGAEVKKPGASVKVSCKASGYIFSNYWIQWVRQAPGQGLEWMGEILPGSGSTEYTENFKDRVTMTRDTSTSTVYMELSSLRSEDTAVYYCARYFFGSSPNWYFDVWGQGTLVTVSSASTKGPSVFPLAPCSRSTSESTAALGCLVKDYFPEPVTVSWNSGALTSGVHTFPAVLQSSGLYSLSSVVTVPSSNFGTQTYTCNVDHKPSNTKVDKTVERKCCVECPPCPAPPVAGPSVFLFPPKPKDTLMISRTPEVTCVVVDVSQEDPEVQFNWYVDGVEVHNAKTKPREEQFNSTYRVVSVLTVLHQDWLNGKEYKCKVSNKGLPSSIEKTISKAKGQPREPQVYTLPPSQEEMTKNQVSLTCLVKGFYPSDIAVEWESNGQPENNYKTTPPVLDSDGSFFLYSRLTVDKSRWQEGNVFSCSVMHEALHNHYTQKSLSLSLG
light: DIQMTQSPSSLSASVGDRVTITCGASENIYGALNWYQQKPGKAPKLLIYGATNLADGVPSRFSGSGSGTDFTLTISSLQPEDFATYYCQNVLNTPLTFGQGTKVEIKRTVAAPSVFIFPPSDEQLKSGTASVVCLLNNFYPREAKVQWKVDNALQSGNSQESVTEQDSKDSTYSLSSTLTLSKADYEKHKVYACEVTHQGLSSPVTKSFNRGEC
With B1 the “deposition of C3d on PNH RBCs” value was “significant deposition of C3 activation products (e.g., C3d) occurs on Type III cells”.

Source: US20260183365A1, “COMBINATION THERAPY FOR C3 INHIBITION” (Apellis Pharmaceuticals, Inc., priority 2016, published 2026)
